Laboratory results as given in ChEMBL document CHEMBL3745640, “Challenges in the Discovery of Indoleamine 2,3-Dioxygenase 1 (IDO1) Inhibitors” (J Med Chem, 2015).

Chains of the proteins cited; added tags and fusions are not shown.
UniProt P14902, whole entry: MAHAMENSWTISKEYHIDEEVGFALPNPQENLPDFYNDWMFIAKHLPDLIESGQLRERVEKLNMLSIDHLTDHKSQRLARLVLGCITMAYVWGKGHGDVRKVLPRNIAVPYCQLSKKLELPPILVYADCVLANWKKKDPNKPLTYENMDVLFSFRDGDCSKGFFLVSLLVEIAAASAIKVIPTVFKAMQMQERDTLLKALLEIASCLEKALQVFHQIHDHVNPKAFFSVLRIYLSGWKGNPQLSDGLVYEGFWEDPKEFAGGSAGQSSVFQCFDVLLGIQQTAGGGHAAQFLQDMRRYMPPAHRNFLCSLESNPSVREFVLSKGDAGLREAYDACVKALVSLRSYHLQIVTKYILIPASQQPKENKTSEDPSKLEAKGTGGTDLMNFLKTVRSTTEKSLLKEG

Target: Indoleamine 2,3-dioxygenase 1 (Homo sapiens, UniProt P14902)
Assay: Inhibition of C-terminal 6His-tagged human IDO using L-tryptophan as substrate preincubated for 5 mins followed by substrate addition measured after 15 mins by spectrophotometric analysis

In the case of `OC(CC1c2ccccc2-n2cncc21)C1CCCCC1` (stereo unspecified), the IC50 is reported as under 1000 nM.
